The values below are quoted from earlier work in patent EP4818190A1, “TRISACCHARIDE LINKER, LINKER-PAYLOAD COMPRISING TRISACCHARIDE LINKER, AND GLYCAN CHAIN-REMODELED ANTIBODY-DRUG CONJUGATE, AND PREPARATION METHODS THEREFOR AND USES THEREOF” (priority 2023, dated 2025).

The test system of series [1] is HER2-positive breast cancer. The conditions noted are these: patients who received at least two targeted HER2 therapies and exhibited drug resistance; cited from earlier work.
Series [2] has as its system metastatic breast cancer with low HER2 expression. The conditions noted are these: as compared to standard chemotherapies; cited from earlier work.

With Enhertu, the overall response rate in series [1] is reported as 60.3%. The “reduction of the risk of death or tumor progression” value in series [2] is 50%.
